Literature values in paper PMC7369641, “Synthesis of SMT022357 enantiomers and in vivo evaluation in a Duchenne muscular dystrophy mouse model” (Tetrahedron, 2020).

System: utrophin protein in EDL muscle of mdx mice
Settings: 2-week-old mdx mice, orally dosed daily with 30 mg/kg for 5 weeks; cited from earlier work

**Q.** Which “Utrophin expression in skeletal and cardiac muscles” value does the source give for `CCP(=O)(OC)c1ccc2oc(-c3cccc(C(F)(F)F)c3)nc2c1` (racemic) [(±)-4, Methyl ethyl(2-(3-(trifluoromethyl)phenyl)benzo[d]oxazol-5-yl)phosphinate] here?
**A.** increased utrophin expression in skeletal and cardiac muscles
